Key:
[1] = molecular target: recombinant human SERT (Homo sapiens, UniProt P31645); test: hSERT SPA binding assay ([3H]citalopram displacement, HEK-293 membranes); conditions: [3H]citalopram 1 nM, HEK-293 membranes expressing human SERT
Procedure: HEK-293 cells stably expressing recombinant human SERT are maintained with DMEM high glucose with 10% FBS, 300 μg/ml G418 and 2 mM L-Glutamine and incubated at 37° C. with 5% CO2. Cells are released from culture flasks using PBS for 1-2 min. The cells are subsequently centrifuged at 1000 g's for 5 min and resuspended in PBS prior to being used in the membrane preparation.
Cells are homogenized using a Polytron in 50 mM Tris (pH 7.4). Centrifuged at 48,000×g for 15 min, and the pellet resuspended in fresh buffer. After a second centrifugation, the pellet is re-homogenized and resuspended in fresh buffer. Typically, membrane portions are aliquoted in 3 mg/ml (w:v). and stored at −80° C.
A serial dilution of test compounds in 50 mM Tris-HCl, 120 mM NaCl, KCl 5 mM (pH 7.4) is made in a white Optiplate (Packard) (100 μl/well) and the radioligand ^3[H] Citalopram (Specific activity: 60-86 Ci/mmol, Final concentration: 1 nM) is added at 50 μl/well. Membrane and beads are prepared to a ratio of 5 μg:0.6 mg, with 0.6 mg PVT-WGA Amersham beads (Cat#RPQ0282V) added per well. 50 μl of the membrane/bead mixture is added to the assay plate for a final volume of 200 μl. The mixtures are allowed to stand at room temperature for one hour, and are then counted on a Packard TopCount.
The % inhibition is calculated for each compound tested (with 100% binding being the value obtained with the incubation of membrane/beads and radioligand in buffer without compound minus the non-specific binding measured in presence of 10 μM Fluoxetine). The concentration producing 50% inhibition (IC50) is determined using an iterative non-linear curve fitting technique. The inhibition dissociation constant (Ki) of each compound is determined according to the method of Cheng-Prusoff, decribed in Biochem. Pharmacol., 1973, 22(23), pages 3099-3108.

Amino acid sequences for entries named in this document (tags omitted).
UniProt P31645, whole entry: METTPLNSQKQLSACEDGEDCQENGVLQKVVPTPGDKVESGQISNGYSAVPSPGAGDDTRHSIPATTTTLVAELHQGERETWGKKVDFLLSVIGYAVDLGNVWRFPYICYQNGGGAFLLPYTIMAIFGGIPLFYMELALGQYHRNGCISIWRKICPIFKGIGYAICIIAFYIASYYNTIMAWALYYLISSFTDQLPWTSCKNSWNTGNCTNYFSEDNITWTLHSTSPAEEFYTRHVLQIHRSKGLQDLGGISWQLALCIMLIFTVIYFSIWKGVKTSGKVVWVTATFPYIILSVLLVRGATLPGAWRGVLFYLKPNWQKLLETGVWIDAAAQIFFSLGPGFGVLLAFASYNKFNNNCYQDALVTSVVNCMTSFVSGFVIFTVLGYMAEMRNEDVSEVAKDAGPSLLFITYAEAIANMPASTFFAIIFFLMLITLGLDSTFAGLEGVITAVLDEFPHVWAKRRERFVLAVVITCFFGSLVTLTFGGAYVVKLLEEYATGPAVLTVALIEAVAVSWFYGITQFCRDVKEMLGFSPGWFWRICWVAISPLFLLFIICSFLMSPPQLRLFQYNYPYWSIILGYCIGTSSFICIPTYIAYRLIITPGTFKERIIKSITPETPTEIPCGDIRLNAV
UniProt P25103, whole entry: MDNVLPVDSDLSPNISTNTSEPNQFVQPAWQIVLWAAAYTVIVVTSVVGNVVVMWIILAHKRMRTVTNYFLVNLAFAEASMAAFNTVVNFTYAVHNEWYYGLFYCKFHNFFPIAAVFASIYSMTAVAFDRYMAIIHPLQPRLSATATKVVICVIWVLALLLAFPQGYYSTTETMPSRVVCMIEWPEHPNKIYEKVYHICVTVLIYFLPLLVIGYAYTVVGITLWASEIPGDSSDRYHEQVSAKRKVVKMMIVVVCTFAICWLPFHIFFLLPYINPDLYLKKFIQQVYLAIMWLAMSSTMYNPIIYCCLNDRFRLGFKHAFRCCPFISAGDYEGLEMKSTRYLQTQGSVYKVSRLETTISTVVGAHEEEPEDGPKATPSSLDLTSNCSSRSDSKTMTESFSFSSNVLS

[2] = molecular target: human NK-1 receptor (Homo sapiens, UniProt P25103); test: hNK-1 binding assay ([3H]substance P displacement, CHO cells); conditions: [3H]substance P 0.6 nM, CHO cells transfected with human NK-1 receptor
Procedure: The affinity of test compounds for the NK-1 receptor was evaluated at human NK-1 receptors in CHO cells transfected with the human NK-1 receptor using the Semliki virus expression system and radiolabelled with [^3H]substance P (final concentration 0.6 nM). Binding assays were performed in HEPES buffer (50 mM, pH 7.4) containing BSA (0.04%) leupeptin (8 μg/ml), MnCl2 (3 mM) and phosphoramidon (2 μM). Binding assays consisted of 250 μl of membrane suspension (1.25×10^5 cells/assay tube), 125 μl of buffer of displacing agent and 125 μl of [^3H]substance P. Displacement curves were determined with at least ten concentrations of the compound. The assay tubes were incubated for 60 min at room temperature after which time the tube contents were rapidly filtered under vacuum through GF/C filters presoaked for 60 min with PEI (0.3%) with 2×2 ml washes of HEPES buffer (50 mM, pH 7.4). The radioactivity retained on the filters was measured by scintillation counting. All assays were performed in duplicate in at least 2 separate experiments.
The inhibition dissociation constant (Ki) of each compound for NK1 is determined as described above for hSERT.

pKi hSERT [1]	pKi hNK1 [2]	SMILES
6.49	7.57	FC(F)(F)c1cc(COC[C@@H]2CNC[C@H]2c2cccc(Cl)c2)cc(C(F)(F)F)c1
6.28	7.90	Cc1ccccc1[C@@H]1CNC[C@H]1COCc1cc(C(F)(F)F)cc(C(F)(F)F)c1

SMILES	pKi hSERT [1]	pKi hNK1 [2]
Fc1ccc([C@@H]2CNC[C@H]2COCc2cc(C(F)(F)F)cc(C(F)(F)F)c2)cc1	6.93	8.12
